Results taken from patent publication US10590115B2, “Tetrahydroquinazoline derivatives useful as anticancer agents” (PFIZER INC., priority 2018, dated 2020).

Molecular target: T1, GDP-loaded kRas (1-169) G12C, C51S, C80L, C118S (Homo sapiens, UniProt P01116, C118S/C51S/C80L/G12C)
T1 construct: GDP-loaded kRas (1-169) G12C, C51S, C80L, C118S
Experiment: Mass Spectrometry Reactivity Assay (MSRA), covalent adduct with kRas G12C
Format: binding
Conditions: 0.5 h at room temperature; 5 μM KRas protein; typical final concentration of the compounds 10 μM
Description: Mass Spectrometry Reactivity Assay (MSRA)
Compounds presented in the present invention covalently bind to kRas G12C using MSRA to detect a covalent adduct of the exemplary compound and kRas G12C. GDP-loaded kRas (1-169) G12C, C51S, C80L, C118S were diluted in the protein assay buffer 25 mM Hepes pH7.5, 200 mM NaCl, 5% glycerol to concentration of 5 μM and 20 μl of protein was transferred into 96-well plate. Initial compound stocks were generated at concentrations 100-fold higher that their desired assay concentrations. See K-Ras(G12C) inhibitors allosterically control GTP affinity and effector interactions; Ostrem J M, Peters U, Sos M L, Wells J A, Shokat K M; Nature. 2013, Nov. 28; 503(7477):548-51.
Exemplary compounds dissolved in DMSO were diluted 100-fold into solution containing 20 μl of 5 μM KRas protein in the 96-well plate to initiate the reaction. Mosquito (TPP Lab tech) liquid handling robot was used to add compounds to protein solution. Typical final concentration of the compounds was 10 μM. The plates were placed on a shaker for 1 min at RT, sealed and incubated at room temperature for specified time period. 5 μl of reaction mix was added to 10 μl of 0.2% formic acid stop solution and mixed well. […]
The percent of modified protein at the defined concentration of exemplary compound was calculated using the following formula: % mod=Num of modified peak/Sum of modified+unmodified. […]

C=CC(=O)N1CCN(c2nc(N3CC(N(C)C)C3)nc3c2C[C@@H](C)[C@H](c2c(Cl)ccc4[nH]ncc24)C3)CC1 (single isomer, unassigned) [Example F10]
% Modification (0.5 h): 85%
